Counter-ions that a name gives are not always drawn.
Biological target: GII Pol (Norovirus Hu/GII.4/Sydney/NSW0514/2012/AU, UniProt K4L8Z7)
Format: biochemical

Cc1nc(/N=N/c2cc(S(=O)(=O)O)c3cc([N+](=O)[O-])cc(S(=O)(=O)O)c3c2)c(COP(=O)(O)O)c(C=O)c1O [PPNDS, pyridoxal‐5′‐phosphate‐6‐(2′‐naphthylazo‐6′‐nitro‐4′,8′‐disulfonate) tetrasodium salt]
fold more effective against GII Pol than GII ProPol: ~ 7 fold

From PMC11575396, “Activity and cryo-EM structure of the polymerase domain of the human norovirus ProPol precursor” (Journal of Virology, 2024)
